The numbers were not newly measured in US10537521B2 (priority 2016, dated 2020), which cites them from elsewhere.

The chains behind the UniProt entries cited, without tags or fusion partners.
UniProt P35372, whole entry: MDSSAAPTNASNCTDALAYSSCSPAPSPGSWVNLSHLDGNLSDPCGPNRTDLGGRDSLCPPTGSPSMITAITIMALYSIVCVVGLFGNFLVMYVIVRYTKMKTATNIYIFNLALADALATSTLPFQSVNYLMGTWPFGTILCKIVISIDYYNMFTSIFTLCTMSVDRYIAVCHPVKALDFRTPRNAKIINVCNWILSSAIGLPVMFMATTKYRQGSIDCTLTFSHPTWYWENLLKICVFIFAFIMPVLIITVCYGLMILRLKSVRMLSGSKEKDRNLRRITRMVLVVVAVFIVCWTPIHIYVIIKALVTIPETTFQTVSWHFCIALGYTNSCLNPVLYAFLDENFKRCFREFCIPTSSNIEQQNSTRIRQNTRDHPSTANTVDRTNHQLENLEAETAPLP

For the data set, the target named is μ-opioid (Homo sapiens, UniProt P35372). Particulars: cited from earlier work.

In the case of (+)-O-desmethyltramadol [(+)-M1], the μ-opioid activity result is reported as “significant μ-opioid activity”.
